Counter-ions that a name gives are not always drawn. Like-named read-outs stand apart in the source and are kept apart here.
Assays:
[1] = target: T1, dopamine (DA) transporter (Homo sapiens, UniProt Q01959); assay: biochemical
[2] = target: T1, dopamine (DA) transporter; settings: read-out: Dopamine (DA) Ki; Table 4
[3] = IC50, Dopamine (DA) transporter, Table 1, racemic mixtures, blind tested
[4] = Ki, Dopamine (DA) transporter, Table 1, ± S.E.M.

Sequences of proteins named here, by UniProt entry; tags and fusion partners are left off.
UniProt Q01959, whole entry: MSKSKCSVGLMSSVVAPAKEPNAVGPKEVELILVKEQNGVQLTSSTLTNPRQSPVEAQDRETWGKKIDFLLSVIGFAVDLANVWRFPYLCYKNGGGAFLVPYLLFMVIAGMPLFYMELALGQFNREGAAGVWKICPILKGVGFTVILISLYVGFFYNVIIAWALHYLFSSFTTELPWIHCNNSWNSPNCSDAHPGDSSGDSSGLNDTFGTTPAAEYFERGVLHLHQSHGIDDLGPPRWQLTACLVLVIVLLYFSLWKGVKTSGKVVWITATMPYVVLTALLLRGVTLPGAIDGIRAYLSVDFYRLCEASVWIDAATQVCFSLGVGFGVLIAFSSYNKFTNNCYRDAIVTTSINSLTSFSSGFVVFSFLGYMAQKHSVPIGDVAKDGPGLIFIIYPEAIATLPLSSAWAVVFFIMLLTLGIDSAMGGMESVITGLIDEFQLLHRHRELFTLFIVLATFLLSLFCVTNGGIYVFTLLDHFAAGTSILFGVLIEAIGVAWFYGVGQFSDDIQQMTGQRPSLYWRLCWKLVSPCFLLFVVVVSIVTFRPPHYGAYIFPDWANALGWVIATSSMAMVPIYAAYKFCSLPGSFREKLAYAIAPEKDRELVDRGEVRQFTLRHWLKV

Row | Compound | IC50 ([1]; Dopamine (DA) IC50, Table 4) [nM] | Ki ([1]; Dopamine (DA) Ki, Table 4) [nM] | IC50 [1, 3] [nM] | Ki [1, 4] [nM] | Ki ([1]; Affinity (Ki), Dopamine (DA) transporter, Table 2, radioligand binding, NovaScreen, ± S.E.M.) [nM] | Ki [2] [nM]
1 | CNC[C@@H]1C[C@]1(Oc1cccc2ccccc12)c1cccs1 (racemic) [DWJW0002, (E)-N-Methyl-[2-(naphthalen-1-yloxy)-2-(thiophen-2-yl)cyclopropyl)methanamine Hydrochloride] | 507 | 416 | 147 | 586 ± 120 | – | –
2 | CNCC1CC1(Oc1cccc2ccccc12)c1cccs1 (racemic) [DWJW0003, (Z)-N-Methyl-[2-(naphthalen-1-yloxy)-2-(thiophen-2-yl)cyclopropyl]methanamine Hydrochloride] | 338 | 275 | 71.7 | 283 ± 5.3 | 283 | –
3 | CNC[C@@H]1C[C@]1(Oc1cccc2ccccc12)c1cccs1 [(+)−30] | 1120 | – | – | – | – | 913
4 | CNC[C@H]1C[C@@]1(Oc1cccc2ccccc12)c1cccs1 [(−)−30] | 963 | – | – | – | – | 790
5 | CNC[C@H]1C[C@]1(Oc1cccc2ccccc12)c1cccs1 [(−)−32] | 2070 | 1620 | – | – | – | –

— patent US8772330B2, “Inhibitor(s) of transporters or uptake of monoaminergic neurotransmitters” (State of Oregon acting by and through the State Board of …, priority 2009, dated 2014)
